The text below walks through data of ChEMBL document CHEMBL1142444 (Bioorg Med Chem Lett, 2008).

Protein sequences, listed by entry. Tags and fused reporters are not part of them.
UniProt P20309, whole entry: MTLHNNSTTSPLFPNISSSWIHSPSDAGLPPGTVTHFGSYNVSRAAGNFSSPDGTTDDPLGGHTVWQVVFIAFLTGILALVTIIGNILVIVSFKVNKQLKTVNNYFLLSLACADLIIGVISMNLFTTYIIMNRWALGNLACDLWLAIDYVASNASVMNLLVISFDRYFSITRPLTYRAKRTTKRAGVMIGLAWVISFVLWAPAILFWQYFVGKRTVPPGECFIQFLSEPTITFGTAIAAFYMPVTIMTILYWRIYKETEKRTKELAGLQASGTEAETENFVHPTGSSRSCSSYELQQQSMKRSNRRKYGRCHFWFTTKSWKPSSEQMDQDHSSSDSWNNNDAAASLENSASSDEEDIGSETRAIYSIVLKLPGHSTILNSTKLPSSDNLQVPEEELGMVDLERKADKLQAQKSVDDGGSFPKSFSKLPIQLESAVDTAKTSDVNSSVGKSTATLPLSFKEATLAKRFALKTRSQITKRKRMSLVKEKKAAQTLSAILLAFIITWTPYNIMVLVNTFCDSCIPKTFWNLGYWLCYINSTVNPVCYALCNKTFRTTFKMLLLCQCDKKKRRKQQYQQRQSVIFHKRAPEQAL

This test concerns the target Muscarinic acetylcholine receptor M3 (Homo sapiens, UniProt P20309). In words: Agonist activity at muscarinic M3 receptor. In kind it is functional.

Molecules are shown by their SMILES.

For orientation: EC50 means the concentration at which the effect is half-maximal. `CCOC(=O)N1CCC(N2CCC(n3c(=O)[nH]c4ccccc43)CC2)CC1` returned an EC50 of 113 nM.
